The values that follow come from US20050026911A1, “Benzotriazapinone salts and methods for using same” (priority 2003, published 2005).

This experiment concerns the target T1, gastrin (CCK2) receptors (Rattus norvegicus, UniProt P30553).
T1 construct: The stomach was excised and flushed with ca. 1 ml of unbuffered physiological saline solution; from tissue; host or cells: isolated whole stomach of immature rats (ca. 21 days old)
T1 sequence (P30553 1-452): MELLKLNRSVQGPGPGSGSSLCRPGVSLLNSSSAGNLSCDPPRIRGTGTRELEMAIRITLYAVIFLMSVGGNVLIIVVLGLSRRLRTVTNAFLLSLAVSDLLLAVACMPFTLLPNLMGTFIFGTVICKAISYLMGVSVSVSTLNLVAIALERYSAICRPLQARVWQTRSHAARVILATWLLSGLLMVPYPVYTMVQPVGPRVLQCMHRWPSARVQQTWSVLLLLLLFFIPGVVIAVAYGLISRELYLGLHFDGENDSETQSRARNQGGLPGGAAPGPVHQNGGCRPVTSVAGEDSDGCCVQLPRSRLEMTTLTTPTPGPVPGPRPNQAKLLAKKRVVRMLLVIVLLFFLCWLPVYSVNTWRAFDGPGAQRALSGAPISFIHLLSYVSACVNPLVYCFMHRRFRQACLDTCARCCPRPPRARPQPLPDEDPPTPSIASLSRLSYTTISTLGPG
Nature of the experiment: gastrin (CCK2) antagonist activity in an immature rat stomach assay. Conditions: pentagastrin dose-response curves, acid secretion, read-out: pKB rat stomach (converted). As to the method:
The compounds of the examples were tested for gastrin (CCK2) antagonist activity in an immature rat stomach assay. The procedure was as follows:
The oesophagus of immature rats (33-50 g, ca. 21 days old) was ligated at the level of the cardiac sphincter and the duodenal sphincter was cannulated. The stomach was excised and flushed with ca. 1 ml of unbuffered physiological saline solution. The fundus was punctured and cannulated. A further 4-5 ml of unbuffered solution was flushed through the stomach to ensure the preparation was not leaking. […] The stomach was continuously perfused at a rate of 1 ml min^−1 with unbuffered solution gassed with 100% O2 with the perfusate passing over an internally referenced pH-electrode fixed 12 cm above the stomach.
After 120 min of stabilisation the drugs were added directly to the serosal solution in the organ bath and after a further 60 min cumulative pentagastrin dose-response curves were started.
Consider `CC(C)(C)C(=O)CN1C(=O)N(CC(=O)Nc2cccc(-c3cn(CC(=O)O)cn3)c2)N=C(C2CCCCC2)c2ccccc21` [Example 97, [4-(3-{2-[5-Cyclohexyl-1-(3,3-dimethyl-2-oxo-butyl)-2-oxo-1,2-dihydro-3H-1,3,4-benzotriazepin-3-yl]-acetylamino}-phenyl)-imidazol-1-yl]-acetic acid], for which the Kb is 25.7 nM. For the molecule `CC(C)(C)C(=O)CN1C(=O)N(CC(=O)Nc2cccc(N3CCCC3)c2)N=C(C2CCCCC2)c2ccccc21` [Example 27, 2-[5-Cyclohexyl-1-(3,3-dimethyl-2-oxo-butyl)-2-oxo-1,2-dihydro-3H-1,3,4-benzotriazepin-3-yl]-N-(3-pyrrolidin-1-yl-phenyl)-acetamide], the Kb was 145 nM. Then `CNc1cccc(NC(=O)CN2N=C(C3CCCCC3)c3ccccc3N(CC(=O)C(C)(C)C)C2=O)c1` [Example 3, 2-[5-Cyclohexyl-1-(3,3-dimethyl-2-oxo-butyl)-2-oxo-1,2-dihydro-3H-1,3,4-benzotriazepin-3-yl]-N-(3-methylamino-phenyl)-acetamide], with 7.94 nM; and `Cc1ccccc1C(=O)CN1C(=O)N(CC(=O)Nc2cccc(C(=O)O)c2)N=C(C2CCCCC2)c2ccccc21` [Example 15, 3-{2-[5-Cyclohexyl-2-oxo-1-(2-oxo-2-o-tolyl-ethyl)-1,2-dihydro-3H-1,3,4-benzotriazepin-3-yl]-acetylamino}-benzoic acid], with 9.55 nM. The figure for `O=C(CN1N=C(C2CCCCC2)c2ccccc2N(CC(=O)N2CCCC2)C1=O)Nc1cccc(C(=O)O)c1` [Example 20, 3-{2-[5-Cyclohexyl-2-oxo-1-(2-oxo-2-pyrrolidin-1-yl-ethyl)-1,2-dihydro-3H-1,3,4-benzotriazepin-3-yl]-acetylamino}-benzoic acid] is 58.9 nM. Consider `CC(C)(C)C(=O)CN1C(=O)N(CC(=O)Nc2cccc(C(=O)O)c2)N=C(C2CCCCCC2)c2ccccc21` [Example 55, 3-{2-[5-Cycloheptyl-1-(3,3-dimethyl-2-oxo-butyl)2-oxo-1,2-dihydro-3H-1,3,4-benzotriazepin-3-yl]-acetylamino}-benzoic acid], for which the Kb is 0.692 nM. Turning to `CC(C)(C)C(=O)CN1C(=O)N(CC(=O)Nc2cccc(-c3cccn3CC(=O)O)c2)N=C(C2CCCCC2)c2ccccc21` [Example 158, [2-(3-{2-[5-Cyclohexyl-1-(3,3-dimethyl-2-oxo-butyl)-2-oxo-1,2-dihydro-3H-1,3,4-benzotriazepin-3-yl]-acetylamino}-phenyl)-pyrrol-1-yl]-acetic acid], the Kb was 4.27 nM. The figure for `CC(C)(C)C(=O)CN1C(=O)N(CC(=O)Nc2cccc(CO)c2)N=C(C2CCCCC2)c2ccccc21` [Example 48, 2-[5-Cyclohexyl-1-(3,3-dimethyl-2-oxo-butyl)-2-oxo-1,2-dihydro-3H-1,3,4-benzotriazepin-3-yl]-N-(3-hydroxymethyl-phenyl)-acetamide] is 17 nM; for `CC(C)(C)C(=O)CN1C(=O)N(CC(=O)Nc2cccc(N)c2)N=C(C2CCCCC2)c2ccccc21` [Example 85, N-(3-Amino-phenyl)-2-[5-cyclohexyl-1-(3,3-dimethyl-2-oxo-butyl)-2-oxo-1,2-dihydro-3H-1,3,4-benzotriazepin-3-yl]-acetamide] it is 36.3 nM. For the molecule `CC(C)(C)C(=O)CN1C(=O)N(CC(=O)Nc2cccc(OCC(=O)O)c2)N=C(C2CCCCC2)c2ccccc21` [Example 53, (3-{2-[5-Cyclohexyl-1-(3,3-dimethyl-2-oxo-butyl)-2-oxo-1,2-dihydro-3H-1,3,4-benzotriazepin-3-yl]-acetylamino}-phenoxy)-acetic acid], the Kb was 20.9 nM.
